Legend:
[1] = system: phospho-ERK1/2 in A375 cells; assay: cells; conditions: Homo sapiens, A-375, 3 h, read-out: A375 ICW IC50
A375 cells = assay: cells; conditions: Homo sapiens, A-375, 72 h, read-out: A375 XTT IC50 uM

Row | SMILES | IC50 [1] [nM] | IC50 (A375 cells) [µM]
1 | Cc1nc2cnc3cc(F)c(-c4ccc(Oc5nccn(C)c5=O)cc4Cl)cc3c2n1C1CCN(C(N)=O)CC1 [Example 82, 4-(8-(2-chloro-4-((4-methyl-3-oxo-3,4-dihydropyrazin-2-yl)oxy)phenyl)-7-fluoro-2-methyl-1H-imidazo[4,5-c]quinolin-1-yl)piperidine-1-carboxamide] | 2180 | 2.33
2 | Cc1ccnc(Oc2ccc(-c3cc4c(cc3F)ncc3ncn(C5(C)CCN(C(=O)CO)CC5)c34)c(F)c2)n1 [Example 83, 1-(4-(7-fluoro-8-(2-fluoro-4-((4-methylpyrimidin-2-yl)oxy)phenyl)-1H-imidazo[4,5-c]quinolin-1-yl)-4-methylpiperidin-1-yl)-2-hydroxyethanone] | 88 | 0.301
3 | Cc1nc2cnc3cc(F)c(-c4ccc(Oc5ncccn5)cc4Cl)cc3c2n1C1CCN(CC#N)CC1 [Example 84, 2-(4-(8-(2-chloro-4-(pyrimidin-2-yloxy)phenyl)-7-fluoro-2-methyl-1H-imidazo[4,5-c]quinolin-1-yl)piperidin-1-yl)acetonitrile] | 58 | 0.225
4 | Cc1nc2cnc3cc(F)c(-c4ccc(Oc5ncccn5)cc4Cl)cc3c2n1[C@H]1CCN(CC#N)C[C@@H]1F [Example 85, 2-((3S,4S)-4-(8-(2-chloro-4-(pyrimidin-2-yloxy)phenyl)-7-fluoro-2-methyl-1H-imidazo[4,5-c]quinolin-1-yl)-3-fluoropiperidin-1-yl)acetonitrile] | 16 | 0.021
5 | Cc1nc2cnc3cc(F)c(-c4ccc(Oc5ncccn5)cc4Cl)cc3c2n1[C@H]1CCN(C(=O)C2CCO2)C[C@@H]1F (stereo partly drawn) [Example 86, ((3S,4S)-4-(8-(2-chloro-4-(pyrimidin-2-yloxy)phenyl)-7-fluoro-2-methyl-1H-imidazo[4,5-c]quinolin-1-yl)-3-fluoropiperidin-1-yl)(oxetan-2-yl)methanone] | 176 | 0.175
6 | COc1ncnc(Oc2ccc(-c3cc4c(cc3F)ncc3nc(C)n([C@H]5CCN(C(=O)CO)C[C@@H]5F)c34)c(Cl)c2)n1 [Example 99, 1-((3S,4S)-4-(8-(2-chloro-4-((4-methoxy-1,3,5-triazin-2-yl)oxy)phenyl)-7-fluoro-2-methyl-1H-imidazo[4,5-c]quinolin-1-yl)-3-fluoropiperidin-1-yl)-2-hydroxyethanone] | 35 | 0.531
